Data as given in PMC3880643 (Journal of medicinal chemistry, 2013).

Tests used:
[1] = system: H3K9me2 levels in MDA-MB-231 cells; experiment: cells; settings: Homo sapiens, MDA-MB-231, 48 h, read-out: H3K9me2 IC50
[2] = system: H3K9me2 levels in PANC-1 cells; experiment: H3K9me2 in-cell western assay; type: cell-based; settings: Homo sapiens, PANC-1, 48 h, read-out: H3K9me2 IC50

Structure (SMILES) | IC50 [1] [nM] | IC50 [2] [nM]
COc1cc2c(NC3CCN(C(C)C)CC3)nc(C3CCCCC3)nc2cc1OCCCN1CCCC1 [Compound 5, reference compound] | 81 | –
COc1cc2c(NC3CCN(C(C)C)CC3)nc(N3CCC(F)(F)CC3)nc2cc1OCCCN1CCCC1 [Compound 7, 2-(4,4-Difluoropiperidin-1-yl)-N-(1-isopropylpiperidin-4-yl)-6-methoxy-7-(3-(pyrrolidin-1-yl)propoxy)quinazolin-4-amine] | – | < 150
COc1cc2c(NC3CCN(C(C)C)CC3)nc(N3CCCCCC3)nc2cc1OCCCN1CCCC1 [Compound 17] | 100 | –
